Values of other authors in patent publication US20230120480A1, “METHODS FOR REMOVING CO[…] PLANT-DERIVED PHARMACEUTICALS” (priority 2021, published 2023).

Conditions: permissible limit of the pesticide in Cannabis, State of Oregon

Structure (SMILES): CN(C)NC(=O)CCC(=O)O [Daminozide]
- Action Level (ppm): 1 ppm
